Assay results taken from ChEMBL document CHEMBL5247640 (J Med Chem, 2023).

Key:
[1] = Fold of selectivity, ratio of compound EC50/T3 EC50 for THRalpha to ratio of compound EC50/T3 EC50 for THRbeta
[2] = AUClast in ICR mouse liver at 10 mg/kg, po measured after 24 hrs by LC-MS/MS analysis; type: ADME, organism-based; conditions: in vivo

CC(C)n1c(=O)ccc2c1ccn2-c1c(Cl)cc(-n2nc(C#N)c(=O)[nH]c2=O)cc1Cl
Ratio [1]: 11.2 | AUClast [2]: 1124265 ng·h/g
